# Test results as given in patent US20240217947A1, “Morpholinylquinazoline Compound, Pharmaceutical compositions thereof and Use Thereof” (SHANGHAI YINGLI PHARMACEUTICAL CO., LTD, priority 2022, published 2024).
# The chains behind the UniProt entries cited, without tags or fusion partners. Where a name states a change or a piece, a line headed by the entry shows the natural chain unless it says otherwise.
# UniProt Q92769, whole entry: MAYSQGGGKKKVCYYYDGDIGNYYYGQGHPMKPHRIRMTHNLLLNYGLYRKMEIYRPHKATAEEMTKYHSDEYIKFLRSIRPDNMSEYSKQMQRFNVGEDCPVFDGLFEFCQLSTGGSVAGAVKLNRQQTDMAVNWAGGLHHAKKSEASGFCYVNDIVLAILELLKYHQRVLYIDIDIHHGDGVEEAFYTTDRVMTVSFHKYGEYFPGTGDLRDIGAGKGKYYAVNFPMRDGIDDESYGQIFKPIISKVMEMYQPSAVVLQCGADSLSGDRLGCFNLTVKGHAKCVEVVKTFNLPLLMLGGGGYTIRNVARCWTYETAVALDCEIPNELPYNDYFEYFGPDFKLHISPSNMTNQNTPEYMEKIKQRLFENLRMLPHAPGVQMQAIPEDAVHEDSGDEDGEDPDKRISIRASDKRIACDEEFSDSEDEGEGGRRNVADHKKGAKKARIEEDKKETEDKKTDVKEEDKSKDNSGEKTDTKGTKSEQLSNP
# UniProt O00329, whole entry: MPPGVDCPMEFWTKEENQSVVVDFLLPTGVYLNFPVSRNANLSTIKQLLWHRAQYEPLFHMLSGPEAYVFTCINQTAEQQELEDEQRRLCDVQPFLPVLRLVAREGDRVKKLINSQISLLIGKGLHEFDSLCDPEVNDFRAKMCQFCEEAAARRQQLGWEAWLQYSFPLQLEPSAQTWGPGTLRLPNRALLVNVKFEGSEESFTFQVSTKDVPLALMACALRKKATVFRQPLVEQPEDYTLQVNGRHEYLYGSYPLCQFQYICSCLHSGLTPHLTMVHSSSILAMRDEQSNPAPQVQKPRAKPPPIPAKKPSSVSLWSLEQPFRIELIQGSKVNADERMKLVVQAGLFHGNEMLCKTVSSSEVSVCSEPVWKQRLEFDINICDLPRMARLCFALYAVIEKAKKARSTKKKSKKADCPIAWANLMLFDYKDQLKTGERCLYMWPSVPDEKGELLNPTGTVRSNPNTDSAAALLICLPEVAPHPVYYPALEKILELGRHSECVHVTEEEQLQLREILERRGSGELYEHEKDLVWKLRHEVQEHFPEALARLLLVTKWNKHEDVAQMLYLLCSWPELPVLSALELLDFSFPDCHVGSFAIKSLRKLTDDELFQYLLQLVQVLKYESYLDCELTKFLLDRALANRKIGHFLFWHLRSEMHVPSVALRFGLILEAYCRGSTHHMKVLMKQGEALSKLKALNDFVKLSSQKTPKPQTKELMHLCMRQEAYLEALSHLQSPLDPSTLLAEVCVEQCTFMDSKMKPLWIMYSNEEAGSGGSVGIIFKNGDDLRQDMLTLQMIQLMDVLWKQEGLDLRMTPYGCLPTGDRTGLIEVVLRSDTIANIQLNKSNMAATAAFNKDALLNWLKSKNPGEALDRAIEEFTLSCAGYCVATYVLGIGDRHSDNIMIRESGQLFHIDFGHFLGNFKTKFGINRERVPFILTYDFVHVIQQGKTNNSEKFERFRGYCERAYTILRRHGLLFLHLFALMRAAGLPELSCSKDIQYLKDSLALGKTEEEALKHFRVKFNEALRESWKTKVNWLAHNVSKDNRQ
# UniProt P42338, whole entry: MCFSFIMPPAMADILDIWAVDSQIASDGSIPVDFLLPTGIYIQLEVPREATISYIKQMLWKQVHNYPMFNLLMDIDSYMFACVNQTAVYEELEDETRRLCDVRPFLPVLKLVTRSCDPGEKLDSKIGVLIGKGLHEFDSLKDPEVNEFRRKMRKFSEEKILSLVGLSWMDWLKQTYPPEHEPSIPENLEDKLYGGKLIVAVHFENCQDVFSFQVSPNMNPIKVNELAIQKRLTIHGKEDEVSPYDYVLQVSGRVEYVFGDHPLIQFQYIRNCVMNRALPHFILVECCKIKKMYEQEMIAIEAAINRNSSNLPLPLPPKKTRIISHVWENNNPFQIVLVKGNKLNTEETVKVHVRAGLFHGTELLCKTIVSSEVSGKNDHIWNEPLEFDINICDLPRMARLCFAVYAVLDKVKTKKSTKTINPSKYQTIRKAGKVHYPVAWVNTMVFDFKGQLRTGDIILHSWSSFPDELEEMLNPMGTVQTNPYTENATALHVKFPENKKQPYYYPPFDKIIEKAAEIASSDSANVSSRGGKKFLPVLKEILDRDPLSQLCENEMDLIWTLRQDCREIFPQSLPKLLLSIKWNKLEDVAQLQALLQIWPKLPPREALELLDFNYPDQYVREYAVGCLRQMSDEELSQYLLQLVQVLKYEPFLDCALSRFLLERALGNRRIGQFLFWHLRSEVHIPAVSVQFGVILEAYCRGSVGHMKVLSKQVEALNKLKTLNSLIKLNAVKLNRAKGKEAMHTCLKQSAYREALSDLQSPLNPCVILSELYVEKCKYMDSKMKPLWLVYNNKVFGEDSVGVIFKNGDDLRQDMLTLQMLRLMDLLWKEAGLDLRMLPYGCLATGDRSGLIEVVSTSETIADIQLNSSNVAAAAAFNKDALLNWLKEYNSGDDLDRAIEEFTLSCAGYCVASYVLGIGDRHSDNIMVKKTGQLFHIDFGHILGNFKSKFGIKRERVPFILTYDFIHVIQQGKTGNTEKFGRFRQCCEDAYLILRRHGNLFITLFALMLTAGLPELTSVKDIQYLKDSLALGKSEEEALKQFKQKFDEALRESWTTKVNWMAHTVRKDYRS
# UniProt P42336, whole entry: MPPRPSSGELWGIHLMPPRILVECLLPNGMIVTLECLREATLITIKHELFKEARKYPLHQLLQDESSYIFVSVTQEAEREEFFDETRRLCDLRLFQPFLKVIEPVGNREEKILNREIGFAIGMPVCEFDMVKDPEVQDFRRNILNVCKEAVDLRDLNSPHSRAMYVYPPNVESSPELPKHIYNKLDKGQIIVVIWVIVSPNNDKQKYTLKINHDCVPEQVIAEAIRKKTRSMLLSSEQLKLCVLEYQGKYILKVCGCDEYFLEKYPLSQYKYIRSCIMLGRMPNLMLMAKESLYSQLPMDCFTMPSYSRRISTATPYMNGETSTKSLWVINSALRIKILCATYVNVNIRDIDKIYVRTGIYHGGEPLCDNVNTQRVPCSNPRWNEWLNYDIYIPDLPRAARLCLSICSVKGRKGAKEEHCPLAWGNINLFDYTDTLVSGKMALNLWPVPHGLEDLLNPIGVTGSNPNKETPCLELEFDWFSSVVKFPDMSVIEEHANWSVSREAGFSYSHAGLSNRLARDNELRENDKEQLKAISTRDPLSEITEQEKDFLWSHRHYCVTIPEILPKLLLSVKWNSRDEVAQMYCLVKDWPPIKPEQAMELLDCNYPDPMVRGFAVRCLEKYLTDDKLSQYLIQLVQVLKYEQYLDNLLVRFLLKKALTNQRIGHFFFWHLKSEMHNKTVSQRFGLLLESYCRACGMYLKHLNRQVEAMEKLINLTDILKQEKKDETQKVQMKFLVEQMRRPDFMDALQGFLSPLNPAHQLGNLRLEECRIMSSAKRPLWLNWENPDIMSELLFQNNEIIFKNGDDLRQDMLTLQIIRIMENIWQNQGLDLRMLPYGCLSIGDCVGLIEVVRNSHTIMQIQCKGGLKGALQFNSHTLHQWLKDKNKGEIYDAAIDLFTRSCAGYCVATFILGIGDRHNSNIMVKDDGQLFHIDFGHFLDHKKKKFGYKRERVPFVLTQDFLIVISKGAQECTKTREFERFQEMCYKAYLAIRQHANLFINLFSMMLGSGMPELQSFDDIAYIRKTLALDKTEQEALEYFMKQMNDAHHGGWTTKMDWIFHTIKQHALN
# UniProt Q13547, whole entry: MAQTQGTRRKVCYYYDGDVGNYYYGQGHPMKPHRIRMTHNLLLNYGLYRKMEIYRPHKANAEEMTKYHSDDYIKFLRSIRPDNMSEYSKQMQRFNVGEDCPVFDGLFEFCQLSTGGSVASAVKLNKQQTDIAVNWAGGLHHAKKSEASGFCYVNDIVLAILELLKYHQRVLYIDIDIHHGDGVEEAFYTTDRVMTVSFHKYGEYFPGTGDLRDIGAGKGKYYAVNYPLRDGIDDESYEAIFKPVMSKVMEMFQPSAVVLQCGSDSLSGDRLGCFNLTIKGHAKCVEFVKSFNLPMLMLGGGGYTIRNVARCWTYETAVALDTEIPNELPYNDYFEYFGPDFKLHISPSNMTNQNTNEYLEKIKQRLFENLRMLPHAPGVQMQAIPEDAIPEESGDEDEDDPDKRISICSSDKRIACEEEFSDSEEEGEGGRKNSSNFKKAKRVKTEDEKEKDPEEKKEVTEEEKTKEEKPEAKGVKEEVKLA
# UniProt Q9UBN7, whole entry: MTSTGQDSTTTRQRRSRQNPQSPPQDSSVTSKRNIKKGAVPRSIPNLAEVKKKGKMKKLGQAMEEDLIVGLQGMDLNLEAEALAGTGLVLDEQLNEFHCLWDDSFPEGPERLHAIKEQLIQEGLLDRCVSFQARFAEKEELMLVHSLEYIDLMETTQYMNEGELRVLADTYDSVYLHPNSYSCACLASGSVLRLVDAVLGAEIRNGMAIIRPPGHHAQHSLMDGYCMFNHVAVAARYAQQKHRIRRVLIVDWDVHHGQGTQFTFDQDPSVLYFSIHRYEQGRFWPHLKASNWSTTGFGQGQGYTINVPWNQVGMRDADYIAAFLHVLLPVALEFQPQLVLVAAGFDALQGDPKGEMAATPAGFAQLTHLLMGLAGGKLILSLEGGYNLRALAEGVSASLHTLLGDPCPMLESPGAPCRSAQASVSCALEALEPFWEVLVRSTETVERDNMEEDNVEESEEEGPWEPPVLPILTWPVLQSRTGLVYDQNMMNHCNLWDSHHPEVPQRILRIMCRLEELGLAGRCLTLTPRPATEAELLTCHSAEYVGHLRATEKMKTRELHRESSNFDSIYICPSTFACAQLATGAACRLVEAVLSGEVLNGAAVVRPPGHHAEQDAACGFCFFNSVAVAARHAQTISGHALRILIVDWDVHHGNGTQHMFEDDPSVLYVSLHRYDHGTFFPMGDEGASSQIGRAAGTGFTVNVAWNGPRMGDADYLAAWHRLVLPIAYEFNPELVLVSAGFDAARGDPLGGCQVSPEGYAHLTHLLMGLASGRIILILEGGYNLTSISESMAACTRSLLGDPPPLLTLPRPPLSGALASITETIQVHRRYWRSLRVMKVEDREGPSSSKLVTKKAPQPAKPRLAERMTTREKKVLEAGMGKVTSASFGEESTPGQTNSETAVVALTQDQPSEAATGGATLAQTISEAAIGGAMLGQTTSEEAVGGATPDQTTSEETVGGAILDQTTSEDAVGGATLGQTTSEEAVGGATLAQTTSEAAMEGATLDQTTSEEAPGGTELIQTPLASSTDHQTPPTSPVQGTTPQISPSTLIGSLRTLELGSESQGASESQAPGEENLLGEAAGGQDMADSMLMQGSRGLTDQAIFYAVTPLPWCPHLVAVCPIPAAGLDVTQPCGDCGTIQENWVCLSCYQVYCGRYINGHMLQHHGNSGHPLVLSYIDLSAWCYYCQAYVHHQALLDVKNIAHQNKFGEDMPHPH
# UniProt P48736, whole entry: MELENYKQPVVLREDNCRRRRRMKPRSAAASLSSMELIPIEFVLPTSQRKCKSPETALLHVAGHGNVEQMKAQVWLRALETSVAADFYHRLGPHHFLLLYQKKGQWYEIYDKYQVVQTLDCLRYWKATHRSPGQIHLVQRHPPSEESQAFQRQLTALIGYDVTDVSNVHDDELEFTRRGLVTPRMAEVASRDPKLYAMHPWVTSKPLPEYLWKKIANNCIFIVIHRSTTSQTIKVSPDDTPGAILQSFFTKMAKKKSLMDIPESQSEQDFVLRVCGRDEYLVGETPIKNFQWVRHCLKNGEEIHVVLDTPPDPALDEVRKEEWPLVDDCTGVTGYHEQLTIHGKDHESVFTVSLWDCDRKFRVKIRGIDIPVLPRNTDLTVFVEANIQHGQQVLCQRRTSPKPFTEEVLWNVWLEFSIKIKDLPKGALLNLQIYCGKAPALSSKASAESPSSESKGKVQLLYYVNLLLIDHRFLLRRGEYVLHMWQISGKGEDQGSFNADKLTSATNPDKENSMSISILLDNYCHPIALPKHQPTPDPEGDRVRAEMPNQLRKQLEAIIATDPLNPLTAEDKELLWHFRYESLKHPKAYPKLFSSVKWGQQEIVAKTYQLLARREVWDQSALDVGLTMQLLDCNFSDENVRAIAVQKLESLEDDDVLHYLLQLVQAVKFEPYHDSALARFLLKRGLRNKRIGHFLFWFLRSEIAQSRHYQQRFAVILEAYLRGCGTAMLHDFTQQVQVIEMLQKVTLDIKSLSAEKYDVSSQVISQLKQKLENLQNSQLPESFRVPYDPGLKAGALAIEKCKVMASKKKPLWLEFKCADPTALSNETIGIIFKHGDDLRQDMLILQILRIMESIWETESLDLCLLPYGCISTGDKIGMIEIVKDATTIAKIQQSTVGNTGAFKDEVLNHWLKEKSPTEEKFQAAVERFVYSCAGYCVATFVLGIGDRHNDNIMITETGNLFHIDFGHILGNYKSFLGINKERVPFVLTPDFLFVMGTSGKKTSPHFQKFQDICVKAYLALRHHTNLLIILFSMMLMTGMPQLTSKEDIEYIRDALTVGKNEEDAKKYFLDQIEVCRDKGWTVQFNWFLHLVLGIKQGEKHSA
# Experiments:
# HDAC10 = HDAC10 (Homo sapiens, UniProt Q969S8); test: HDAC10 enzyme activity inhibition IC50 evaluation experiment; details: read-out: HDAC10 IC50; HDAC10 10 nM, acetylated peptide 4 μM, 240 min, fluorescence
# Method: Effect Example 3 HDAC8, HDAC10 enzyme activity inhibition IC50 evaluation experiment
# Prepare buffer solution (HDAC8: 50 mM Tris 8.0, 2.7 mM KCl, 137 mM NaCl, 1 mM MgCl2, 1 mg/mL BSA; HDAC10: 50 mM Tris 7.5, 0.01% Tween-20, 50 mM NaCl, 0.05 mg/mL BSA) according to the kit instructions, prepared Enzyme solution, substrate solution (acetylated peptide) by using buffer. The test compound samples were dissolved in DMSO and was added to the screening system at a certain starting concentration such as 10 μM, 3-fold dilution, while setting up the DMSO control and the no-enzyme control. The enzyme reaction system includes: buffer, enzyme [final concentration: HDAC8=10 nM, HDAC10=10 nM], substrate (acetylated peptide) [final concentration: Peptide(HDAC8)=20 μM, Peptide(HDAC10)=4 μM], etc. The enzymes and compounds were reacted at room temperature for 15 minutes. After adding the substrate peptide the reaction system was reacted at room temperature for 240 min. Trypsin solution was added [final concentration: Trypsin=50p M] and incubation continued for 120 min. The fluorescence signal data (excitation wavelength 355 nM/emission wavelength 460 nm) was read with Envision instrument. Calculate the inhibition rate at this concentration based on the relative fluorescence units (RFU). The IC50 value was obtained by fitting a curve using the formula Y=Bottom+(Top-Bottom)/(1+(IC50/X)^HillSlope).
# HDAC2 = HDAC2 (Homo sapiens, UniProt Q92769); test: HDAC2 enzyme activity inhibition IC50 evaluation experiment; details: read-out: HDAC2 IC50; HDAC2 4 nM, acetylated peptide 10 μM, trypsin, fluorescence
# Method: (§1) Effect Example 2 HDAC1, HDAC2, HDAC3, HDAC6 enzyme activity inhibition IC50 evaluation experiment
# (§2) Buffer solution (50 mM Tris 7.5, 0.01% Tween-20, 50 mM NaCl) was prepared according to the kit instructions, and the enzyme solution and substrate solution (acetylated peptide with the addition of trypsin) were prepared using the buffer solution. The test compound samples were dissolved with DMSO and added to the screening system at a certain starting concentration such as 10 μM, 3-fold dilution, while setting up a DMSO control and no-enzyme control. The enzyme reaction system includes: buffer, enzyme [final concentration: HDAC1=10 nM, HDAC2=4 nM, HDAC3=7 nM, HDAC6=5 nM], substrate (acetylated peptide) [final concentration: Peptide(HDAC1)=8 μM, Peptide(HDAC2)=10 μM, Peptide(HDAC3)=5 μM, Peptide(HDAC6)=11 μM], trypsin [final concentration: Trypsin(HDAC1,2,3)=0.05 μM, Trypsin(HDAC6)=0.1 μM], etc. The enzymes and compounds were reacted at room temperature for 15 min. After adding the substrate and Trypsin, centrifugation was performed for 1 min, and the fluorescence signal data (excitation wavelength 355 nM/emission wavelength 460 nm) was read continuously for 60 min using Envision, and the linear reaction segment was selected to obtain the slope and thus calculate the inhibition rate at that concentration. […]
# PI3Kδ = PI3Kδ (Homo sapiens, UniProt O00329); test: PI3Kδ enzyme activity inhibition IC50 evaluation assay (ADP-Glo Kinase Assay); details: read-out: PI3K-δ IC50, ATP 25 μM, PIP2 50 μg/mL, 1 hour room temperature
# HDAC3 = HDAC3 (Homo sapiens, UniProt O15379); test: HDAC3 enzyme activity inhibition IC50 evaluation experiment; details: read-out: HDAC3 IC50; HDAC3 7 nM, acetylated peptide 5 μM, trypsin, fluorescence
# Method: as §1, §2
# PI3Kβ = PI3Kβ (Homo sapiens, UniProt P42338); test: PI3Kβ enzyme activity inhibition IC50 evaluation assay (ADP-Glo Kinase Assay); details: read-out: PI3K-β IC50, ATP 25 μM, PIP2 50 μg/mL, 1 hour room temperature
# PI3Kα = PI3Kα (Homo sapiens, UniProt P42336); test: PI3Kα enzyme activity inhibition IC50 evaluation assay (ADP-Glo Kinase Assay); details: read-out: PI3K-α IC50, ATP 25 μM, PIP2 50 μg/mL, 1 hour room temperature
# HDAC1 = HDAC1 (Homo sapiens, UniProt Q13547); test: HDAC1 enzyme activity inhibition IC50 evaluation experiment; details: read-out: HDAC1 IC50; HDAC1 10 nM, acetylated peptide 8 μM, trypsin, fluorescence
# Method: as §1, §2
# HDAC6 = HDAC6 (Homo sapiens, UniProt Q9UBN7); test: HDAC6 enzyme activity inhibition IC50 evaluation experiment; details: read-out: HDAC6 IC50; HDAC6 5 nM, acetylated peptide 11 μM, trypsin, fluorescence
# PI3Kγ = PI3Kγ (Homo sapiens, UniProt P48736); test: PI3Kγ enzyme activity inhibition IC50 evaluation assay (ADP-Glo Kinase Assay); details: read-out: PI3K-γ IC50, ATP 25 μM, PIP2 50 μg/mL, 1 hour room temperature
smiles,measurement,setting,value
COc1ncc(-c2nc(N3CCOCC3)nc3c(CN4CCC(CCCC(=O)NO)CC4)cc(F)cc23)cc1NS(C)(=O)=O,IC50,HDAC10,1 to 10 µM
same,IC50,HDAC2,100 to 1000 nM
same,IC50,PI3Kδ,< 10 nM
same,IC50,HDAC3,100 to 1000 nM
same,IC50,PI3Kβ,100 to 1000 nM
same,IC50,PI3Kα,1 to 10 µM
same,IC50,HDAC1,100 to 1000 nM
same,IC50,HDAC6,10 to 100 nM
same,IC50,PI3Kγ,> 10 µM
COc1ncc(-c2nc(N3CCOCC3)nc3c(CN4CCC(CCC(=O)NO)CC4)cc(F)cc23)cc1NS(C)(=O)=O,IC50,PI3Kδ,< 10 nM
same,IC50,HDAC6,100 to 1000 nM
COc1ncc(-c2nc(N3CCOCC3)nc3c(CN4CCC(CC(=O)NO)CC4)cc(F)cc23)cc1NS(C)(=O)=O,IC50,PI3Kδ,10 to 100 nM
same,IC50,HDAC6,1000 to 10000 nM
COc1ncc(-c2nc(N3CCOCC3)nc3c(CN4CCC(OCCOCC(=O)NO)CC4)cc(F)cc23)cc1NS(C)(=O)=O,IC50,PI3Kδ,< 10 nM
same,IC50,PI3Kα,1 to 10 µM
same,IC50,HDAC6,> 10000 nM
